# In PubChem BioAssay AID2302 (GlaxoSmithKline (GSK), 2010):
# The entries are a selection whose mix differs from that of the whole data set. Activity calls are given as the source filed them.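 Rule for the calls: active = growth inhibition above 50% at the single 2 µM test dose, taken to imply half-maximal potency below 2 µM; inactive = the rest.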
# Assay: antimalarial activity against Dd2 strain (AID 2302);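 note: 0% = DMSO untreated growth and 100% = chloroquine plus artemisinin killed control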
# Conditions: P. falciparum Dd2 in RBCs, LDH growth readout, 72 h; at 2 µM; stronger effect = higher value
row,Compound,growth inhibition
1,COc1cc(C(=O)NC(SC2=NCCS2)C(Cl)(Cl)Cl)cc(OC)c1OC (stereo unspecified),active: 50%
